Literature values in US7375111B2, “Compositions for affecting weight loss” (priority 2003, dated 2008).

Tested on: serotonin reuptake
Conditions: compared with fluoxetine; SAR of U.S. Pat. No. 4,214,081; cited from earlier work

## CN(C)CCC(Oc1ccc(C(F)(F)F)cc1)c1ccccc1 (stereo not shown) [N-Methylfluoxetine]
  Potency and selectivity toward inhibition of serotonin reuptake: comparable potency and selectivity to that of fluoxetine
